Literature values as cited in patent publication US20260007760A1, “CAMPTOTHECIN DERIVATIVES THAT BIND TO DDX5 PROTEIN AND PRODRUGS THEREOF” (priority 2022, published 2026).

Experiments:
[1] = 0.8 mg/kg to 8.0 mg/kg once every 3 weeks, 22 patients; cited from earlier work
[2] = human, in vivo; cited from earlier work

For Enhertu, the Dose-limiting toxicity [1] is listed as “No dose-limiting toxicity was observed”, the “Dosage discontinuation due to adverse reactions” value [2] is listed as 35.3% and the “Dose reduction due to adverse reactions” value [2] is listed as 23.4%.
